This note sets out measurements from patent US6743429B2, “Use of calcitonin gene-related peptide in the prevention and alleviation of asthma and related bronchospastic pulmonary diseases” (Sherbrooke University, priority 1999, dated 2004).

The test system of one data set is sheep. Kind of data set: Haemodynamic parameters and baseline SRL after inhaled administration in sheep. The format is in vivo. An excerpt:
Eighteen sheep with a mean weight of 35 kg (range: 24 to 52 kg) were used for this study. […] Ten of these animals were defined as non-allergic and 8 as allergic, based on the absence or presence of both early and late airway responses after a standard inhalation challenge with Ascaris suum antigen. All sheep were allowed a 4-week recovery period after the allergen challenge before experimentation began. For each of the procedures hereafter presented, the unsedated animals were restrained on a standard shopping cart in the prone position and their heads were immobilized. After topical anesthesia of the nasal passages with 2% lidocaine solution, a balloon catheter was advanced through one nostril into the lower esophagus. Subsequently, a cuffed nasotracheal tube (7 to 8 mm in diameter) was placed with the guidance of a flexible fiberoptic bronchoscope.
The techniques used for investigating airway mechanics were again well-validated and standardized procedures (as is usually the case with large mammals). […] Lateral pressure in the trachea was measured with a sidehole catheter (inner diameter=2.5 mm) advanced through and positioned distal to the tip of the endotracheal tube. […] The transpulmonary pressure and flow signals were recorded on a Hewlett Packard (model 7754B, Mass. USA) multichannel recorder, which was linked to a PC 386 Personal Computer (IBM Equipment, Montreal, Quebec) for online calculation of mean RL by dividing the change in transpulmonary pressure by the change in flow at mid-tidal volume (Vt) (obtained by digital integration). […] Immediately after measuring RL, thoracic gas volume (Vtg) was measured in a constant-volume body plethysmograph to obtain specific lung resistance (SRL=RL×Vtg) in L×cm H2O/L/sec.
All aerosols were generated using a disposable medical nebulizer (Raindrop, Puritan-Bennett, Lenexa, Kan.) which produced an aerosol with a mass median aerodynamic diameter of 3.6 mm (geometric S.D. 1.9), as determined by a seven stage Andersen cascade impactor (Andersen, Inc. Atlanta, Ga.). […]

In another data set the test system is human isolated bronchi. Kind of data set: Inhibition by CGRP of carbamylcholine-induced contraction in human isolated airways. Format: cell-based. The procedure: Because lung inflammation is a common feature in asthmatic patients, experiments were then repeated using human isolated airways to determine whether this same phenomenon also occurred. Macroscopically normal lung specimens were obtained from 6 patients undergoing surgery for carcinoma and from autopsy (n=9) performed within 6 hours of death. The study protocol was approved by the Ethical Committee of the University Hospital. […] The lung specimens were transported to the laboratory in ice-cold pre-oxygenated Krebs solution. Suitable cartilaginous bronchi (internal diameter 2 to 4 mm) were dissected free of adjacent tissue and were either used immediately (autopsy cases) or after 24 hr storage in pre-oxygenated Krebs solution at 4° C. Isolated bronchi were cut into helical strips and set up for isometric recording (initial tension: 1 g) under the conditions described for the isolated guinea pig airways. They were primed by adding 10^−3M carbamylcholine followed by washouts, which ensured a stable function for the rest of the experiment.

Where [1] appears, read: inhaled increasing doses (CGRP 0.1, 0.25, 0.5 and 1.0 mg/2 ml).

With calcitonin gene-related peptide [CGRP], the “specific lung resistance (SRL), baseline” value with sheep (inhaled CGRP 0.1 to 1.0 mg/2 ml, measured for six hours, no challenge) is on record as “without any significant effect”. In the data set on sheep (setting [1]), the heart rate result was “without any significant effect” and the “mean arterial blood pressure (MAP)” value is on record as “without any significant effect”. In addition, the “antispasmogenic effect on carbamylcholine (10^−6M) contraction” value with human isolated bronchi (control human tissues (no inflammation)) was “efficient antispasmogenic agent”. The “bronchoprotector properties against carbamylcholine (10^−6M) contraction” value with human isolated bronchi (inflammed human airways) is “totally abolished”.
